Measured values taken from US10526320B2, “Pyrrolidine derivatives as PPAR agonists” (GUANGDONG RAYNOVENT BIOTECH CO., LTD., priority 2016, dated 2020).

Chains of the proteins cited; added tags and fusions are not shown.
UniProt Q03181, whole entry: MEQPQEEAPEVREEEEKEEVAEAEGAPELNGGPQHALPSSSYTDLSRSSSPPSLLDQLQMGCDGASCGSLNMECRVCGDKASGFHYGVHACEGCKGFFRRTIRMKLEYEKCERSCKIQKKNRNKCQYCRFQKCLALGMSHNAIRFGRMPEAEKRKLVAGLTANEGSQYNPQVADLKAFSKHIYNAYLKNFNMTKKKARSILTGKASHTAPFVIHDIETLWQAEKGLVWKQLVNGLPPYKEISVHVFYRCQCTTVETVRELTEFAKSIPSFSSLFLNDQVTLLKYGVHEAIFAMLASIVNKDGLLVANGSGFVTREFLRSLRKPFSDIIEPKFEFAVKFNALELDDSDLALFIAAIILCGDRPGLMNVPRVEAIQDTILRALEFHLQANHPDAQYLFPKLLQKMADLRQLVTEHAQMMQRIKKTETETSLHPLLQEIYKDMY
UniProt Q07869, whole entry: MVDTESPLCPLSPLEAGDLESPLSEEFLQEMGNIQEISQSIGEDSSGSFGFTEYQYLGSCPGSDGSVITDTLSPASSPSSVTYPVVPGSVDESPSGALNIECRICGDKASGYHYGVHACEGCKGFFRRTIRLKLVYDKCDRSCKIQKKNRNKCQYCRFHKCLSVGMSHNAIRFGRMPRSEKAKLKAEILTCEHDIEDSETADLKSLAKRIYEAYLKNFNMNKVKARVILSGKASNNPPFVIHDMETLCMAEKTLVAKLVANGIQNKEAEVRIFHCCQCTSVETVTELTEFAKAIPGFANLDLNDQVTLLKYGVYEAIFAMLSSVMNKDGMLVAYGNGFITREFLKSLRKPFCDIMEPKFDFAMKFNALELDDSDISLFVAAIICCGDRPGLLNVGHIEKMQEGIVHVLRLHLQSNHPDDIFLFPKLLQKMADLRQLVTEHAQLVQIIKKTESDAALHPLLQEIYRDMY
UniProt P37231, whole entry: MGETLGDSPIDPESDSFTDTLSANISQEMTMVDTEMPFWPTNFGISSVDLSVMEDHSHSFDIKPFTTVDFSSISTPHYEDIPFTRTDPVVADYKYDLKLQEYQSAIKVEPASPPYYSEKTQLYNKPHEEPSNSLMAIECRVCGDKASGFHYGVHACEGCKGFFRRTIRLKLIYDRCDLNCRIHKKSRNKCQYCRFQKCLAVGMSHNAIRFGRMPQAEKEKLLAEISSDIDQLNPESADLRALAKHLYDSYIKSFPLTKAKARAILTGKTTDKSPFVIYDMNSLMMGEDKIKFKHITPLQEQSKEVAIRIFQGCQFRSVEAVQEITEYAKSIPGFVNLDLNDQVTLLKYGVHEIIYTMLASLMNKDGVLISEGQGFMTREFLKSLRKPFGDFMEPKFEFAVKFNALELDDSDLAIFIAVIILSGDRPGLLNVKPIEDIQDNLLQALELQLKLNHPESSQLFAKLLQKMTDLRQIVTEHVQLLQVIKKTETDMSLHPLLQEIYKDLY

Legend:
Type in all cases: cell-based
[1] = molecular target: PPAR Delta (Homo sapiens, UniProt Q03181); test: PathHunter NHR protein interaction / nuclear translocation agonist test, PPAR Delta; details: read-out: PPAR Delta EC50 nM; agonist mode
[2] = molecular target: PPAR Alpha (Homo sapiens, UniProt Q07869); test: PathHunter NHR protein interaction / nuclear translocation agonist test, PPAR Alpha; details: read-out: PPAR Alpha EC50 nM; agonist mode
[3] = molecular target: PPAR Gamma (Homo sapiens, UniProt P37231); test: PathHunter NHR protein interaction / nuclear translocation agonist test, PPAR Gamma; details: read-out: PPAR Gamma EC50 nM; agonist mode

| SMILES | EC50 [1] | EC50 [2] | EC50 [3] |
| --- | --- | --- | --- |
| COCCN1CC(CCc2cc(C)c(OC(C)(C)C(=O)O)c(C)c2)C(C(=O)c2ccc(SC)cc2)C1 (single isomer, unassigned) | 200 to 250 nM | 200 to 250 nM | – |
| CSc1ccc(C(=O)C2CN(C(=O)C(C)C)CC2c2cc(C)c(OC(C)(C)C(=O)O)c(C)c2)cc1 (single isomer, unassigned) | – | > 250 nM | – |
| CSc1ccc(C(=O)C2CN(C(=O)N3CCCC3)CC2c2cc(C)c(OC(C)(C)C(=O)O)c(C)c2)cc1 (single isomer, unassigned) | > 250 nM | 200 to 250 nM | – |
| CSc1ccc(C(=O)C2CN(C(=O)Oc3ccc(Br)cc3)CC2Cc2cc(C)c(OC(C)(C)C(=O)O)c(C)c2)cc1 (single isomer, unassigned) | < 100 nM | < 100 nM | – |
| CSc1ccc(C(=O)C2CN(C(=O)Oc3ccccc3)CC2Cc2cc(C)c(OC(C)(C)C(=O)O)c(C)c2)cc1 (single isomer, unassigned) | < 100 nM | < 100 nM | – |
| CSc1ccc(C(=O)C2CN(C(=O)Oc3ccccc3)CC2Cc2cc(C)c(OCC(=O)O)c(C)c2)cc1 (single isomer, unassigned) | 150 to 200 nM | 100 to 150 nM | 200 to 250 nM |
| Cc1cc(CCC2CN(C(=O)Oc3ccccc3)CC2C(=O)c2ccc(Br)cc2)cc(C)c1OC(C)(C)C(=O)O (single isomer, unassigned) | < 100 nM | < 100 nM | 200 to 250 nM |
| CSc1ccc(CC2CN(C(=O)Oc3ccc(Cl)cc3)CC2c2cc(C)c(OC(C)(C)C(=O)O)c(C)c2)cc1 (single isomer, unassigned) [Compound 31] | > 250 nM | 150 to 200 nM | – |
| CSc1ccc(CC2CN(C(=O)Oc3ccc(Cl)cc3)CC2c2cc(C)c(OC(C)(C)C(=O)O)c(C)c2)cc1 (single isomer, unassigned) [Compound 32] | > 250 nM | < 100 nM | – |
| CSc1ccc(C(=O)C2CN(C(=O)Oc3ccc(Cl)cc3)CC2CCc2cc(C)c(OC(C)(C)C(=O)O)c(C)c2)cc1 (single isomer, unassigned) [Compound 44] | 200 to 250 nM | < 100 nM | > 250 nM |
| CSc1ccc(C(=O)C2CN(C(=O)Oc3ccc(Cl)cc3)CC2CCc2cc(C)c(OC(C)(C)C(=O)O)c(C)c2)cc1 (single isomer, unassigned) [Compound 45] | 150 to 200 nM | < 100 nM | > 250 nM |
